Series [1] deals with Canis familiaris. Put plainly: Ratio of Total electrolytic excretion of sodium and potassium in urine of dogs after peroral administration of 9.6 uM/Kg of drug. The format is ADME, organism-based, Canis lupus familiaris. The note with it: dog, in vivo, po.
Series [2] relates to Canis familiaris. Put plainly: Ratio of Total electrolytic excretion of sodium and potassium in urine of dogs after peroral administration of 9.06 uM/Kg of drug. The format is ADME, organism-based, Canis lupus familiaris. Conditions: dog, in vivo, po.
Series [3] relates to Rattus norvegicus. Nature of the series: Ratio of Total electrolytic excretion of sodium and potassium in urine of rats after peroral administration of 9.06 uM/Kg of drug. The format is ADME, organism-based. Conditions: in vivo, po.
In series [4] the test system is Rattus norvegicus. Put plainly: Ratio of Total electrolytic excretion of sodium and potassium in urine of rats after peroral administration of 90.6 uM/Kg of drug. The note with it: in vivo, po. The format is ADME, organism-based.
Series [5] deals with Rattus norvegicus. Nature of the series: Ratio of Total electrolytic excretion of sodium and potassium in urine of rats after peroral administration of 302 uM/Kg of drug. The format is ADME, organism-based. The note with it: in vivo, po.
The subject of series [6] is Rattus norvegicus. Put plainly: Ratio of Total electrolytic excretion of sodium and potassium in urine of rats after peroral administration of 30.2 uM/Kg of drug. The format is ADME, organism-based. Conditions: in vivo, po.

Here are results for 1 compound from ChEMBL document CHEMBL1127385, “Synthesis and diuretic activity of alkyl- and arylguanidine analogs of N,N'-dicyclohexyl-4-morpholinecarboxamidine in rats and dogs” (J Med Chem, 1994).

Take `NS(=O)(=O)c1cc(C(=O)O)c(NCc2ccco2)cc1Cl` [FUROSEMIDE]: the Ratio is 4.4 in series [1]; 5.8 in series [2]; 2.6 in series [3]; 4.1 in series [4]; 4.8 in series [5]; 2.9 in series [6].
